Measurements: patent US20240352100A1 (AJOU UNIVERSITY INDUSTRY ACADEMIC COOPERATION FOUNDATION, published 2024)

Target: EloBC complex (EloB-flag tag and EloC-His8 tag, co-expressed in E. coli) (UniProt Q15370)

9 types of inBC2-SOCS2s excluding inBC2-SOCS2153-198-9
fold improvement of binding ability against inBC2-SOCS2153-198: 4 fold
